For 16 molecules, Ki and Selectivity index results are on record in ChEMBL document CHEMBL1140447, “Synthesis and antimuscarinic properties of quinuclidin-3-yl 1,2,3,4-tetrahydroisoquinoline-2-carboxylate derivatives as novel muscarinic receptor antagonists” (J Med Chem, 2005).

Protein sequences, listed by entry. Tags and fused reporters are not part of them. Lines headed by an entry give the natural chain unless they say otherwise; changes in a name come on top.
UniProt P08482: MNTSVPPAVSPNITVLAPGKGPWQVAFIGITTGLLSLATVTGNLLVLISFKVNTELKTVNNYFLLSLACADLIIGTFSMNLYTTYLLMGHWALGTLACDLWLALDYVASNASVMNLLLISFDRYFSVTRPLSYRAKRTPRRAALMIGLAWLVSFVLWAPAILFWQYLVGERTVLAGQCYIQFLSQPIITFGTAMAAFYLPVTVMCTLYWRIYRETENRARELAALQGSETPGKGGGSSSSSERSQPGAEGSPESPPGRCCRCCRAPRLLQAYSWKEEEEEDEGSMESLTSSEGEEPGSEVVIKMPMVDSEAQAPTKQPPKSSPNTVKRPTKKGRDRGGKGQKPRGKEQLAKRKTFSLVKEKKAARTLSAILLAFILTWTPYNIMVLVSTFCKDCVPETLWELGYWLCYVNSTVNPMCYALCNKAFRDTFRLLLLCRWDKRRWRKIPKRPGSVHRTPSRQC
UniProt P08483, whole entry: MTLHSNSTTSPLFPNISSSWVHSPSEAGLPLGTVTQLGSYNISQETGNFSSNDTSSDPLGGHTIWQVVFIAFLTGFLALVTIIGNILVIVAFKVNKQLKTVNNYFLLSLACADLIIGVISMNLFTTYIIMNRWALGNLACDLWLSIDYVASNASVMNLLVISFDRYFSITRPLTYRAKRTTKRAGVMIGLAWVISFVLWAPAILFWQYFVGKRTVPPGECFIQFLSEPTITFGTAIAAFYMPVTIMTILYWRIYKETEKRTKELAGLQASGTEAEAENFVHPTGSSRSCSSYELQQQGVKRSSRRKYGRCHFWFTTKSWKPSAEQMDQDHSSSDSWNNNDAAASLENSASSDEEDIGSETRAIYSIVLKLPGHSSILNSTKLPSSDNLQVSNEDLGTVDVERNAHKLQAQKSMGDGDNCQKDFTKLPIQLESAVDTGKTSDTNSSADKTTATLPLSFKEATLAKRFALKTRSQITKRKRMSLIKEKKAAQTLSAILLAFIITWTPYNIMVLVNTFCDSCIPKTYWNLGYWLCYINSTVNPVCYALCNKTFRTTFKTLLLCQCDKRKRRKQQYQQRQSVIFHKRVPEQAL
UniProt P10980, whole entry, looked up: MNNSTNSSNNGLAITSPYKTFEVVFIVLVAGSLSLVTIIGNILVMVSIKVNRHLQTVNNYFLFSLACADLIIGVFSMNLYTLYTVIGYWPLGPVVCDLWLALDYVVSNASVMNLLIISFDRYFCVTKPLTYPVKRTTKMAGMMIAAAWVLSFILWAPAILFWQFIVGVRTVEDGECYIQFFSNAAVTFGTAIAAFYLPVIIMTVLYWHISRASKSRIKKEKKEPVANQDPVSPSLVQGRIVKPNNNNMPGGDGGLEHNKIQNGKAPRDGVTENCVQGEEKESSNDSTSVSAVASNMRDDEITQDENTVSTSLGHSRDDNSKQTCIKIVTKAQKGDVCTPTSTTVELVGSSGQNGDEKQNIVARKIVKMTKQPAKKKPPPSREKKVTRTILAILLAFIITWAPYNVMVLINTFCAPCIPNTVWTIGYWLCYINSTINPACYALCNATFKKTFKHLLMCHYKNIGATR

For assay [1], the target named is Muscarinic acetylcholine receptor M1 (Rattus norvegicus, UniProt P08482). Nature of the assay: Binding affinity for rat cortex muscarinic acetylcholine receptor M1 using [3H]pirenzepine.
For assay [2], the target named is Muscarinic acetylcholine receptor M3 (Rattus norvegicus, UniProt P08483). Nature of the assay: Binding affinity for rat salivary gland muscarinic acetylcholine receptor M3 using [3H]N-methylscopolamine.
The species entered for the next assay is Rattus norvegicus. Nature of the assay: Selectivity index calculated as ID50/ED30.
For assay [3], the target named is Muscarinic receptor M2 and M3 (Rattus norvegicus) (UniProt P08483+P10980). The assay can be described thus: Selectivity index as binding affinity for M2 and M3 receptors. The format is protein assay.

Where “and” joins values, the source holds several entries; their conditions need not be identical. Equal values may be shown once. A value given as a limit tells only on which side of the number the result lay.

The Ki is the equilibrium dissociation constant of an inhibitor or competing ligand from its target. A higher Ki goes with a looser hold on the target. For the molecule `O=C(NC(c1ccccc1)c1ccccc1)OC1CN2CCC1CC2` (stereo unspecified), the figures for the Ki in assay [1] and in assay [2] were 0.0015 µM and 0.002 µM, respectively.

For the molecule `O=C(O[C@H]1CN2CCC1CC2)N1CCc2ccccc2C1c1cccs1` (stereo partly specified), the Ki in assay [1] is 0.0018 µM and 0.0024 µM; in assay [2], 0.0036 µM and 0.018 µM.

In turn, `O=C(O[C@H]1CN2CCC1CC2)N1CCc2ccccc2[C@@H]1c1ccccc1` [SOLIFENACIN] showed an inhibition constant (Ki) in assay [1] of 0.01 µM.

Molecule `O=C(O[C@H]1CN2CCC1CC2)N1CCc2ccccc2[C@H]1c1ccccc1` had a Ki in assay [1] of 0.00032 µM.

`O=C(O[C@H]1CN2CCC1CC2)N1CCc2ccccc2C1c1ccsc1` (single isomer, unassigned; 12b): the Ki in assay [1] is 0.0083 µM; in assay [2], 0.021 µM. In the assay listed under Rattus norvegicus, the Selectivity index is 5.4.

As for `O=C(O[C@H]1CN2CCC1CC2)N1CCc2ccccc2C1Cc1ccccc1` (stereo partly specified), the Ki in assay [1] is 0.0039 µM and 0.015 µM; in assay [2], 0.025 µM and 0.16 µM. The Selectivity index in assay [3] is 3 and > 6.3.

Consider `O=C(O[C@H]1CN2CCC1CC2)N1C[C@H](O)c2ccccc2[C@H]1c1ccccc1`, for which the Ki in assay [1] was 0.011 µM; in assay [2], 0.15 µM. Moreover, the Selectivity index in assay [3] was found to be 23.

Take `O=C(O[C@H]1CN2CCC1CC2)N1Cc2ccccc2C(c2ccccc2)C1` (stereo partly specified): the Ki was 0.052 µM in assay [1] and above 1 µM in assay [2].

As to `O=C(O[C@H]1CN2CCC1CC2)N1CCc2ccccc2C1c1ccccc1` (stereo partly specified), the affinity in assay [1] corresponds to a Ki of 0.0014 µM.

As to `O=C(O[C@H]1CN2CCC1CC2)N1CCc2ccccc2C1c1ccsc1` (single isomer, unassigned; 12a), the Ki in assay [1] was 0.00095 µM; in assay [2] it was 0.0035 µM. Further, the Selectivity index in the assay listed under Rattus norvegicus is reported as 6.9.

Consider `O=C(O[C@H]1CN2CCC1CC2)N1CCc2ccccc2C1C1CCCCC1` (stereo partly specified), for which the Ki in assay [1] is 0.0066 µM and 0.012 µM; in assay [2], 0.0067 µM and 0.063 µM.

Take `O=C(O[C@H]1CN2CCC1CC2)N1CC(O)c2ccccc2C1c1ccccc1` (stereo partly specified): the Selectivity index in assay [3] came out at 4.1.

As to `O=C(O[C@H]1CN2CCC1CC2)N1C[C@@H](O)c2ccccc2[C@@H]1c1ccccc1`, the Ki is 0.041 µM in assay [1] and 0.035 µM in assay [2]. Also, in assay [3], the Selectivity index was determined as 24.

In assay [1], `O=C(O[C@@H]1CN2CCC1CC2)N1CCc2ccccc2[C@@H]1c1ccccc1` yielded a Ki of 0.23 µM.

As for `O=C(O[C@H]1CN2CCC1CC2)N1Cc2ccccc2C1c1ccccc1` (stereo partly specified), the Ki in assay [1] came to 0.0084 µM; in assay [2], 0.028 µM.

As for `O=C(O[C@@H]1CN2CCC1CC2)N1CCc2ccccc2[C@H]1c1ccccc1`, the Ki in assay [1] is 0.44 µM. This lies in the sub-micromolar range.
